Amino acid sequences for entries named in this document (tags omitted).
UniProt P33535, whole entry: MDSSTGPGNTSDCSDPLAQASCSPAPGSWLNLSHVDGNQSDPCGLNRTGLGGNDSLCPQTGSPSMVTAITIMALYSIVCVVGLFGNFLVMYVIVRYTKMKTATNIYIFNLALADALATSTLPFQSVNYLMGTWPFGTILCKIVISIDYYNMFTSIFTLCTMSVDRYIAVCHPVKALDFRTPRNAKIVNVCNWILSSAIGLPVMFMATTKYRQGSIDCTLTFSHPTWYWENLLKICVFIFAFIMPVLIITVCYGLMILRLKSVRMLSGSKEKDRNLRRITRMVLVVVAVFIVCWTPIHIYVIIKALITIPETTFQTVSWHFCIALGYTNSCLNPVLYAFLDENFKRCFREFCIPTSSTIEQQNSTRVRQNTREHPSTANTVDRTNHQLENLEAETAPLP

In BindingDB's records for PubMed 7562497 (R. W. Johnson Pharmaceutical Research Institute, 1995):

Target: Mu-type opioid receptor (Rattus norvegicus, UniProt P33535)

`C[C@@H](NC(=O)[C@@H](N)Cc1ccc(O)cc1)C(=O)NCC(=O)N(C)[C@@H](Cc1ccccc1)C(=O)NCCO` [[tyrosyl-3,5-3H(N)]-D-Ala2-Mephe4-glyol5-enkephalin] was tested, and the Ki was 0.365 nM.
